The entries are a selection whose mix differs from that of the whole data set. The source made the active and inactive calls.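 How the source made its calls: active means signal enhancement of 30% or more; inactive means the rest.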

By UniProt entry, the sequences of proteins in these tests, tags left out.
UniProt Q00987, whole entry: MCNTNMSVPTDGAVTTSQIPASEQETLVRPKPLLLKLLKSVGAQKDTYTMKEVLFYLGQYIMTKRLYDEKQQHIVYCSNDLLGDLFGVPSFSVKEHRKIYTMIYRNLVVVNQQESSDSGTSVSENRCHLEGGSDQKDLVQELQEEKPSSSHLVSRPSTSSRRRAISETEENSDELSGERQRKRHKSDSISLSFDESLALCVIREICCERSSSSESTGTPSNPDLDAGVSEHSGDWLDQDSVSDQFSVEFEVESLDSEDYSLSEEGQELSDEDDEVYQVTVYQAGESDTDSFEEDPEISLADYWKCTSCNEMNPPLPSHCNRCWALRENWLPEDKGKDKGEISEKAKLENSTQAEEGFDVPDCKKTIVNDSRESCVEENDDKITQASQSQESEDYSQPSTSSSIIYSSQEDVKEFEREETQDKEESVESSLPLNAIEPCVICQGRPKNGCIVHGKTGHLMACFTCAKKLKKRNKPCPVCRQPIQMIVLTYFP

The target of this assay is E3 ubiquitin-protein ligase Mdm2 (Homo sapiens) (UniProt Q00987). Nature of the assay: increase of MDM2 autoubiquitination reporter luminescence – cell-based, 1536-well, MDM2 E3 ligase inhibitor project, primary screen (AID 1230).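 Further: luminescence tracks abundance of the self-degrading MDM2-luciferase fusion protein.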 The settings on record: cell-based MDM2 ubiquitination luciferase reporter, 2 h; at 5 µM; hits give high values; 0 = plate control, 100 = twice control, blank-subtracted. The gist of the method:
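Assay system: stable mammalian line carrying autodegrading MDM2–luciferase fusion reporter; Input: 2000 cells in each well; Compound dosing: single-point 5 µM; Schedule: 2 h compound exposure at 37 °C; Signal: SteadyLite luciferase luminescence after 15 min room-temperature reagent incubation; Evaluation: % luminescence enhancement versus blank-corrected plate control mean; Benchmarks: plate controls and plate blanks.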
A general note: In a reporter assay the amount or activity of a reporter protein is the signal.
With `CN1CCN(CCOC(=O)C(O)(c2ccccc2)c2ccccc2)CC1`, the signal enhancement was inactive: -8.74%.
In the case of `COc1ccc(NC2CCN(C(=O)OC(C)(C)C)CC2)cc1` it was inactive: -19%; in that of `O=C(NCC1(N2CCOCC2)CCCCC1)c1cc(=O)[nH]c2ccccc12`, inactive: -22.1%.
As to `O=C(NCC1(N2CCCCC2)CCCCC1)c1cccc([N+](=O)[O-])c1`, the signal enhancement is inactive: -3.35%.
Then `N#CC1(Nc2ccccc2)CCN(CCc2ccccc2)CC1`, with inactive: -2.23%; and `COc1ccc(CN(CCCl)CCCl)cc1Cl`, with inactive: 14.6%.
In the case of `CN(C)c1cccc(C(=O)NCC2(N3CCCCC3)CCCCC2)c1` it was inactive: -17.3%; in that of `CC(C)c1ccc(NC2CCN(C(=O)OC(C)(C)C)CC2)cc1`, inactive: -8.8%; in that of `O=C(NCC1(N2CCOCC2)CCCCC1)c1cc2ccccc2o1`, inactive: -14.3%.
In the case of `CCOC(=O)N1CCC(Nc2ccc(OC)cc2)CC1` it was inactive: 3.89%.
As to `O=C(OC1CN2CCC1CC2)C1c2ccccc2Oc2ccccc21` (centres undefined), the signal enhancement is inactive: -13.6%.
Then `N#CC1(Nc2ccccc2)CCN(Cc2ccccc2)CC1`, with inactive: -8.12%; and `COc1ccc(C(=O)NCC2(N3CCCCC3)CCCCC2)c(OC)c1OC`, with inactive: -8.91%; and `Cc1ccc(OCC(C)C)c(CN(CCCl)CCCl)c1`, with inactive: -0.41%.
Take `CCOc1ccc(C)cc1CN(CCCl)CCCl`: the signal enhancement was inactive: -4%.
`COc1ccc(NC2CCN(CCc3ccccc3)CC2)c(OC)c1`: the signal enhancement was inactive: -11.8%.
For the compound `CCN1CCC(Nc2cccc(F)c2)CC1`, the signal enhancement was inactive: -3.14%.
Then `CN(C)c1ccc(C(=O)NCC2(N3CCCCC3)CCCCC2)cc1`, with inactive: -7.83%; and `Fc1ccccc1NC1CCN(Cc2ccccc2)CC1`, with inactive: -0.4%.
For the compound `CCC(CO)(C(=O)OC1CN2CCC1CC2)c1ccccc1` (centres undefined), the signal enhancement was inactive: 6.71%.
In the case of `COc1cc(OC)cc(C(=O)NCC2(N3CCOCC3)CCCCC2)c1` it was inactive: -13.4%; in that of `CCCOc1ccc(C)cc1CN(CCCl)CCCl`, inactive: 5.36%.
In the case of `CCOc1ncccc1C(=O)NCC1(N2CCOCC2)CCCCC1` it was inactive: -8.07%.
In the case of `CC(C)(C)OC(=O)N1CCC(Nc2ccccc2)CC1` it was inactive: -5.83%; in that of `N/C(=N\O)c1c(N)no[n+]1[O-]`, inactive: 3.8%.
In the case of `O=C(OC1CN2CCC1CC2)C1c2ccccc2C=Cc2ccccc21` (centres undefined), the signal enhancement is inactive: -3.45%.
In the case of `COc1ccc(C(=O)NCC2(N3CCOCC3)CCCCC2)cc1OC` it was inactive: 5.75%; in that of `c1ccc(CN2CCC(Nc3ccccc3)CC2)cc1`, inactive: -11.5%.
In the case of `N#Cc1ccc(C(=O)NCC2(N3CCCCC3)CCCCC2)cc1`, the signal enhancement is inactive: -11.4%.

The values are drawn from PubChem BioAssay AID1230 (PCMD, 2008).
